Screening data deposited in PubChem by National Center for Advancing Translational Sciences (NCATS).
RXFP1 antag: antagonists of human relaxin receptor RXFP1. HEK293-RXFP1, relaxin-stimulated cAMP HTRF, 30 min; active compounds read low. activity change, negative = inhibition, % at 57.5 µM. actives 0.59% (n = 350,000);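 active = activity change of -60% or lower, but not beyond a set lower limit; inconclusive = change between -60% and -40%, or beyond the set limit; inactive = change above -40%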; note: % is set by controls: 0 for no effect and ±100 for the full control effect
GALK inhibitor: inhibitors of human galactokinase; P51570; Purified GALK, Kinase-Glo residual ATP luminescence; Potency, µM (top dose mostly 57.5 µM), inactives show at the highest dose activity change, negative = inhibition, most hits filed as inhibitors; actives 0.007% (n = 270,000); note: potency is the fitted concentration of half-maximal effect; % is set by controls: 0 for no effect and ±100 for the full control effect
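Human GALK (5 nM) with 35 uM ATP and 100 uM galactose in 20 mM HEPES pH 8.0, 5 mM MgCl2, 60 mM NaCl, 1 mM DTT, 0.01% BSA. After 1 h at room temperature, leftover ATP was read by Kinase-Glo Plus luminescence.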
miR-21 reporter: miR-21 reporter, rising signal; HeLa miR-21 FLuc reporter, luciferase, 48 h; Potency, µM (titrated, usually from 38.3 µM), for the others: at the top dose reporter change, positive = more light; 340,000 tested, under 10 active; AID 2288; active = well fitted rising curve with a large enough effect; inconclusive = small, poorly fitted or top-dose-only effect; inactive = no such curve, though single readings can be large or run the other way;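 also: % of control where 0% means no effect; miR-21 action dims this reporter so a rising signal means less miR-21 action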
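HeLa cells stably expressing CMV-driven firefly luciferase with a downstream miR-21 binding sequence, endogenously expressing miR-21, were treated with titrations (up to about 40uM final) for 48 hours at 37 degree Celsius. Luciferase luminescence was read after lysis.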
PKM2 activator: activators of human pyruvate kinase M2; P14618; purified PKM2, Kinase-Glo ATP luminescence, activation; response scale: 0% is enzyme alone, no compound; Potency, µM (series often up to 57.5 µM), inactives show top-dose activation, most hits filed as activators; actives 0.34% (n = 260,000); note: potency is the fitted concentration of half-maximal effect; % is set by controls: 0 for no effect and ±100 for the full control effect; nearly all actives have a fitted effect of over 55% in size
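ATP formation by purified human PK-M2, quantified via coupled luciferase luminescence after 1 h at room temperature with 0.1 mM ADP and 0.5 mM PEP final.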
RXFP1 agonist: activates the human relaxin receptor RXFP1; HEK293T-RXFP1 cAMP TR-FRET, 30 min; response scale: percent of porcine relaxin response, buffer zero; actives 0.3% (n = 370,000); Q9HBX9; Potency, µM (series often up to 57.5 µM), inactives show at the highest dose activation, actives largely listed as activators; AID 2676; note: potency is the fitted concentration of half-maximal effect; % is set by controls: 0 for no effect and ±100 for the full control effect; nearly all actives have a fitted effect of over 60% in size
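cAMP rise read by TR-FRET after 30 min, 37C compound exposure (up to 58 uM) in RXFP1-transfected HEK293 cells with Ro 20174 present. EC50 from Hill-equation fits, with 29 nM porcine relaxin as 100% and buffer as basal.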
Luc counter: Kinase-Glo luciferase inhibition (counter-screen). Q27757. Kinase-Glo luciferase, ATP luminescence, 8 min. Potency, µM (top dose mostly 38.3 µM), for inactives: at the highest dose activity change, negative = inhibition, usual class: inhibitors. actives 0.28% (n = 200,000); note: potency is the fitted concentration of half-maximal effect; % is set by controls: 0 for no effect and ±100 for the full control effect; nearly all actives have a fitted effect of over 60% in size
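Substrate mix (final 50 mM imidazole pH 7.2, 50 mM KCl, 7 mM MgCl2, 10 uM ATP, 0.01% Tween 20, 0.05% BSA) plus pin-tool compound, then Kinase-Glo detection mix; 8 min ambient, luminescence read.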
* marks the source's active call; other numbers are inactive results; ? = inconclusive; nt = not tested or not shown; [ ] = remark or other dose. This is a sample that favours compounds with a hit; in the whole collection about 0.92% have one here. Unless noted, calls come from the whole dose curve; as a rule, active = well fitted curve in the direction sought with a large enough effect; inconclusive = small, poorly fitted or top-dose-only effect, or another doubt; inactive = no such curve, though single readings can be large; an effect the other way counts as inactive or inconclusive.

canonical_smiles,RXFP1 agonist,Luc counter,PKM2 activator,GALK inhibitor,RXFP1 antag,miR-21 reporter
CCN(CC)S(=O)(=O)c1ccc2c(c1)N(CC(=O)NCc1ccccn1)C(=O)CO2,25.1µM*,nt,-1.0%,-0.1%,43.0,-4.1%
CC1Cc2ccccc2N1Cc1cccc([N+](=O)[O-])c1 (stereo not drawn),0.4%,nt,nt,5.3%,-14.1,-3.9%
CCN1CCN(CCCNC(=O)Cn2c(-c3cccs3)cc3cc(Cl)ccc32)CC1,3.0%,nt,nt,nt,-69.0*,-6.8%
CC[N+](CC)(CC)CCOC(=O)C(C1CCCC1)C1CCCC1,nt,nt,nt,nt,-10.7,nt
CC(OC(=O)c1ccc(O)cc1)C(=O)Nc1nc(-c2ccccc2)cs1 (stereo not drawn),-0.2%,nt,nt,nt,-85.0*,nt
CCCCN(CCO)c1ncnc2sc(-c3ccccc3)cc12,7.8%,nt,nt,-5.3%,-65.5*,-19.9%
Cn1cnnc1Sc1cc(N2CCN(S(=O)(=O)c3ccccc3)CC2)ccc1[N+](=O)[O-],4.4%,-1.3%,0.224µM*,nt,-7.0,-9.9%
COc1cccc(OC)c1C(=O)OCC(=O)N(c1ccccc1)C1CCCCC1,-0.3%,nt,nt,nt,6.3,nt
Cc1nc2cc(-c3ccccc3)sc2c(=O)n1N,7.4%,2.24µM*,-105.2%,?,-9.0,19.3%
O=[N+]([O-])c1ccc2c(c1)ncn2CCc1ccccc1,0.3%,nt,7.08µM*,3.2%,1.0,-4.6%
CC1=NOC(=O)/C1=C\c1ccc(-c2cccc(Cl)c2)o1,0.6%,-4.7%,16.5%,nt,nt,8.1%
CC1=NOC(=O)/C1=C\c1ccc(-c2ccccc2Br)o1,17.8µM*,-20.2%,28.0%,-1.2%,-9.4,?
Cc1cc(C)c(OCCCCNCc2ccccc2)c(Cl)c1,0.6%,-0.6%,8.2%,-2.5%,-106.6*,0.3%
O[C@@H](c1cc(-c2ccccc2)nc2c1ccc1ccccc12)C1CCCCN1 (stereo partly drawn),nt,-1.1%[7.66 µM],nt,nt,nt,nt
COC(=O)c1cc(C(=O)c2cccc(Cl)c2Cl)cn1C,-0.2%,-1.7%,25.1µM*,-4.6%,-15.7,-6.6%
O=C(O)c1cncc(C(=O)O)c1,nt,2.2%[7.66 µM],nt,nt,nt,nt
O=C(Nc1nc(-c2cccs2)c(C(=O)C(F)(F)F)s1)c1ccco1,25.1µM*,3.3%,2.2%,2.1%,1.3,7.7%
Cc1c(C(=O)OCC2CCCO2)[nH]c2c1C(=O)CC(c1ccco1)C2 (stereo not drawn),-0.1%,-2.3%,20µM*,-2.6%,-10.0,22.8%
Cc1c(F)cccc1NS(=O)(=O)c1ccc2c(c1)c(=O)n(C)c(=O)n2C,?,2.2%,3.55µM*,1.2%,-0.9,11.4%
COc1cccc(NS(=O)(=O)c2ccc3c(c2)n(C)c(=O)c(=O)n3C)c1,7.3%,-1.9%,1.12µM*,0.3%,6.2,3.1%
Cc1cccc(NS(=O)(=O)c2ccc3c(c2)n(C)c(=O)n3C)c1C,0.0%,nt,nt,nt,0.6,5.8%
Cc1c(F)cccc1NS(=O)(=O)c1ccc2c(c1)n(C)c(=O)c(=O)n2C,9.0%,nt,0.708µM*,-2.3%,-5.9,-0.6%
COc1ccc(-c2nc(NC(=O)c3[nH]c(C)c(C(C)=O)c3C)sc2C)cc1,11.3%,3.8%,7.94µM*,-4.3%,?,-2.6%
COc1ccc(-c2nc(NC(=O)c3ccco3)sc2C)cc1,nt,nt,nt,nt,1.1,nt
CN(C)CCCOC1(Cc2ccccc2)CCCCCC1,nt,nt,nt,nt,-7.3,nt
C[C@H]1OC(OC2C(O)[C@@H](O)C(OC3C(O)[C@@H](O)C(O)O[C@@H]3CO)O[C@@H]2CO)[C@H](O)C(O)C1N[C@H]1C=C(CO)[C@@H](O)[C@H](O)C1O (stereo partly drawn),nt,1.0%[39.9 µM],nt,nt,nt,nt
COC(=O)[C@@H](NC(=O)N1CCc2nc(COc3ccccc3)c3c(c2C1)CO[C@@H](C)C3)C(C)C,nt,-2.6%[7.66 µM],-1.0%[11.5 µM],nt,nt,nt
CN(C)CCNc1nc2sc3c(c2c(=O)n1Cc1ccccc1)CCCCC3,-0.1%,nt,nt,-1.6%,-91.7*,-10.3%
CN(C)CCNc1nc2sc3c(c2c(=O)n1-c1ccccc1)CCCCC3,0.6%,nt,-2.8%,0.5%,-35.6,-13.1%
CCCCC/C=C\C/C=C\C/C=C\CCCCCCC(=O)NCCCC(=O)O,nt,4.8%,nt,nt,nt,nt
O=C(/C=C/c1ccnc2ccccc12)c1cccs1,1.6%,12.6µM*,-16.8%,2.3%,?,-52.7%
COc1ccc(/C=C/C(=O)c2cccs2)c(OC)c1,nt,-20.4%,nt,nt,nt,nt
COc1ccc(CNC(=O)c2cc(S(=O)(=O)N3CCOCC3)cn2C)cc1,3.7%,nt,-7.9%,nt,0.9,-11.2%
COc1cccc(CNC(=O)c2cc(S(=O)(=O)N3CCOCC3)cn2C)c1,0.4%,nt,17.6%,nt,-82.0*,2.2%
Cn1cc(S(=O)(=O)N2CCCC2)cc1C(=O)NCc1ccccc1Cl,4.6%,nt,-8.7%,nt,-72.5*,0.0%
COc1ccccc1CNC(=O)c1cc(S(=O)(=O)N2CCCC2)cn1C,-0.1%,nt,-1.0%,nt,-4.6,1.1%
CCN(CC)CCCN1C=C2C(=O)C(C)(OC(=O)c3cccs3)C(=O)C=C2C=C1CCCC(=O)OC (stereo not drawn),nt,-9.3%[7.66 µM],-5.5%[11.5 µM],nt,nt,nt
COc1cc(NC(=S)NCCO)c(OC)cc1Cl,-0.3%,nt,-4.5%,6.7%,-6.4,1.4%
COc1cc(NC(=O)C(=O)NCCN(C)C)c(OC)cc1Cl,11.3%,-3.3%,-5.3%,-0.3%,-69.4*,0.2%
Cc1cccc2sc(NNC(=O)C3=COCCO3)nc12,-1.7%,2.1%,0.1%,-2.6%,-60.8*,-20.1%
O=C(NNc1nc2c(F)cc(F)cc2s1)C1=COCCO1,2.7%,-1.2%,-30.1%,5.1%,-7.1,-1.2%
CC1=CC(=O)C=C(C)C1=NOS(=O)(=O)c1ccccc1,-1.0%,-4.8%,11.6%,1.3%,-84.2*,?
CC1=CC(=O)C(C(C)C)=C/C1=N/OS(=O)(=O)c1ccccc1,-3.7%,nt,18.1%,2.1%,?,?
Cc1ccccc1OCCn1nc(C(=O)O)c2ccccc2c1=O,2.2%,-0.8%,11.2%,-5.7%,5.5,-12.5%
CCCOc1ccc(OCCn2nc(C(=O)O)c3ccccc3c2=O)cc1,-0.1%,-0.8%,31.6µM*,1.4%,-9.5,-12.3%
O=c1c(Cl)c(NCCO)cnn1-c1cccc(Cl)c1,2.1%,3.0%,-10.2%,0.8%,-16.7,-39.0%
O=c1c(Cl)c(NCCCO)cnn1-c1nc2ccccc2[nH]1,2.8%,11.2µM*,-62.4%,0.2%,-13.5,?
C=CCN(CC=C)c1cnn(-c2nc3ccccc3[nH]2)c(=O)c1Cl,1.9%,14.1µM*,-30.0%,1.8%,-14.4,-25.3%
O=S(=O)(Nc1nc2ccccc2[nH]1)c1ccc(Cl)cc1,-0.8%,0.6%,1.5%,1.7%,1.6,-10.4%

No new results follow: an excerpt of the list.
canonical_smiles,RXFP1 agonist,Luc counter,PKM2 activator,GALK inhibitor,RXFP1 antag,miR-21 reporter
O=C(Nc1nc(-c2cccs2)c(C(=O)C(F)(F)F)s1)c1ccco1,25.1µM*,3.3%,2.2%,2.1%,1.3,7.7%
Cc1c(C(=O)OCC2CCCO2)[nH]c2c1C(=O)CC(c1ccco1)C2 (stereo not drawn),-0.1%,-2.3%,20µM*,-2.6%,-10.0,22.8%
Cc1c(F)cccc1NS(=O)(=O)c1ccc2c(c1)c(=O)n(C)c(=O)n2C,?,2.2%,3.55µM*,1.2%,-0.9,11.4%
COc1cccc(NS(=O)(=O)c2ccc3c(c2)n(C)c(=O)c(=O)n3C)c1,7.3%,-1.9%,1.12µM*,0.3%,6.2,3.1%
Cc1cccc(NS(=O)(=O)c2ccc3c(c2)n(C)c(=O)n3C)c1C,0.0%,nt,nt,nt,0.6,5.8%
